Patent US20220002314A1 (priority 2018, published 2022)
This is a selection: effects in other tests are not listed, and their absence says nothing.

By UniProt entry, the sequences of proteins in these tests, tags left out. Where a name states a change or a piece, a line headed by the entry shows the natural chain unless it says otherwise. Residues count along the entry.
UniProt P54289, 25-1103 limits assumed: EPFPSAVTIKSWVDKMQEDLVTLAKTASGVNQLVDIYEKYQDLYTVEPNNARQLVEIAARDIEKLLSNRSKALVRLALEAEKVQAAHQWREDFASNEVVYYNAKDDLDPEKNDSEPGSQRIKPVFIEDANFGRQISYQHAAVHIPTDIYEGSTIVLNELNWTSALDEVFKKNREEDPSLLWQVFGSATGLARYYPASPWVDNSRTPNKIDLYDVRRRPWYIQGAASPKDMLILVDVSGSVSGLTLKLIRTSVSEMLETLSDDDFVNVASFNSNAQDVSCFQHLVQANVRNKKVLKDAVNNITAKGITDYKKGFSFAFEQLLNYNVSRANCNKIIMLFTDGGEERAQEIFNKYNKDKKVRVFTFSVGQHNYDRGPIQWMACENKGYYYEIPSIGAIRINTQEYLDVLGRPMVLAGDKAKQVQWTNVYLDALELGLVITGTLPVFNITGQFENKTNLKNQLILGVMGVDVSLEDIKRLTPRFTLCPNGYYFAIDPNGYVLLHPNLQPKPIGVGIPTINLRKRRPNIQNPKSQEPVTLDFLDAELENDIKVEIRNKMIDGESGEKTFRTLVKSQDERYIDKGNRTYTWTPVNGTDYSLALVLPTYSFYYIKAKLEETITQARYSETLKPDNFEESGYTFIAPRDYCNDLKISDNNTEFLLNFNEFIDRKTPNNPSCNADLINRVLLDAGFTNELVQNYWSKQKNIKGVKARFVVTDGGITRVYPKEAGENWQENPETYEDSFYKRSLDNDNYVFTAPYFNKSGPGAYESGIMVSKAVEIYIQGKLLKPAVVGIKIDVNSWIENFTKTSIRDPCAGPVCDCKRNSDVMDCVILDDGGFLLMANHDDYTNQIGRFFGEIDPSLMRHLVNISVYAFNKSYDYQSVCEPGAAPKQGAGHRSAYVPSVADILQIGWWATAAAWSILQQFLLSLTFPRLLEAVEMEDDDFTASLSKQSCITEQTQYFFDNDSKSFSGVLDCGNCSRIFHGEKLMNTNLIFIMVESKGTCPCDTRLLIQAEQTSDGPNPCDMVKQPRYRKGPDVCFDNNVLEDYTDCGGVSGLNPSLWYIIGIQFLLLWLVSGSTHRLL

Target: Human α2δ-1 subunit of Cav2.2 calcium channel (Homo sapiens, UniProt P54289)
Details: read-out: α2δ-1 binding; binding to α2δ-1 subunit of voltage-gated calcium channels expressed as Ki; + also Ki>5000 nM or inhibition between 1% and 50%

## CCCC(c1nc2ccc(N(C(=O)CC)C3CCN(C)CC3)cc2c(=O)n1CC)N1C[C@@H](C)N[C@@H](C)C1 (stereo partly shown)
  Ki: < 500 nM
